Laboratory results as given in patent US7947275B2 (Signe Biopharma, Inc., priority 2000, dated 2011).

Tested on: MCF-7K, T47D, ZR-75-1, GH1, GH3, GH4C1, MTW9/PL2 and H301 cells
Assay: CA-PS-pool II with eight ER^+ cell lines in serum-free defined media ± E2
Assay type: cell-based
Conditions: 5 mg/mL
Protocol: Effects of CA-PS-pool II on ER^+ Cell Growth in Serum-free Defined Medium. […] The activity was not replaced by serum albumin at 5 mg/mL (data not shown). The estrogen mitogenic effects seen in defined medium containing only a few μg/mL of protein were equal to or greater than those seen in medium containing 30 to 50% (v/v) CDE-horse serum with every ER^+ cell line tested (TABLE 10).

## serum albumin: serum albumin at 5 mg/mL, species not stated
  replacement of the inhibitor activity: not replaced
